Results published in article PMC12883167 (Bioorganic & medicinal chemistry letters, 2019).

What follows are compounds tested against T1, MALT1 protease (Homo sapiens, UniProt Q9UDY8). Details: Cell (Glo), GloSensor reporter, PMA/IO activated Raji cells.
T1 sequence (Q9UDY8 1-824): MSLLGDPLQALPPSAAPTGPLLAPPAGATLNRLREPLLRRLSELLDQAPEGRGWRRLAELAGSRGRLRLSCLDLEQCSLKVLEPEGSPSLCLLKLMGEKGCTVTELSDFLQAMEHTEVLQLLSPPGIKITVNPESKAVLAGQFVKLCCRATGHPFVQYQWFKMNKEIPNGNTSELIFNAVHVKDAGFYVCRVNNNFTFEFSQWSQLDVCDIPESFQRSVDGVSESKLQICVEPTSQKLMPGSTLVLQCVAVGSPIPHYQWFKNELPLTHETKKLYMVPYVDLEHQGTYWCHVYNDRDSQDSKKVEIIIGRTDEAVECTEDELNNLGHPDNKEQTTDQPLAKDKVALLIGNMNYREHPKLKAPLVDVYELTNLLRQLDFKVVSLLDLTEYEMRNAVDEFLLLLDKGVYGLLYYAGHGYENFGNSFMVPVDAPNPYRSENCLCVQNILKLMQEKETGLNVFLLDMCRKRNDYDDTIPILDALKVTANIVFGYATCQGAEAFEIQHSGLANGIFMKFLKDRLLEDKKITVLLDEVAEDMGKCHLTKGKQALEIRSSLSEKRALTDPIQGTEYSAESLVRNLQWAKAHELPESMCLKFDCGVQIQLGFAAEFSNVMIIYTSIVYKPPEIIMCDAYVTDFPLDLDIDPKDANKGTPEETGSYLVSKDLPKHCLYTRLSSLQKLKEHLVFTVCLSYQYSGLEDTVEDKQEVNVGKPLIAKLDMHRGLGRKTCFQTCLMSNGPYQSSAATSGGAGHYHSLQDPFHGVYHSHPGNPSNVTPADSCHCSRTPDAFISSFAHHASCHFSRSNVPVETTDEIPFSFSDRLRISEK
Format: cell-based

SMILES	IC50 [nM]
CC(C)[C@H](NC(=O)c1ccc(Br)cc1)C(=O)N[C@@H](CO)C(=O)N[C@@H](CCCNC(=N)N)C(=O)CF [Compound 44]	62
CC(C)[C@H](NC(=O)OCc1ccccc1)C(=O)N[C@@H](CCCNC(=N)N)C(=O)N1CCC[C@H]1C(=O)N[C@@H](CCCNC(=N)N)C(=O)CF [Z-VRPR-fmk, reference compound]	2620
CC(C)C[C@H](NC(=O)OCc1ccccc1)C(=O)N[C@H](C(=O)N1CCC[C@H]1C(=O)N[C@@H](CCCNC(=N)N)C(=O)CF)C(C)C [Compound 1, Z-LVPR-fmk]	530
